Laboratory results taken from patent US20250188102A1, “TRIAZINE COMPOUND, INTERMEDIATE THEREOF, PREPARATION METHOD THEREFOR AND USE THEREOF” (priority 2022, published 2025).

Key:
[1] = biological target: 3CL protease of 2019-nCoV (Severe acute respiratory syndrome coronavirus 2 (2019-nCoV) (SARS-CoV-2), UniProt P0DTD1); assay: biochemical
[2] = rat

SMILES | IC50 [1] [nM] | Eh [2] [%]
[2H]C([2H])([2H])n1cnc(Cn2c(=O)[nH]/c(=N\c3cc4cn(C)nc4cc3Cl)n(Cc3cc(F)ccc3F)c2=O)n1 [Compound I-26] | 29 | 
C[C@]12CC[C@H]3[C@@H](CCC4=CC(=O)CC[C@@]43C)[C@@H]1CC[C@@H]2O [Testosterone] |  | 99.5
